Experimental data from patent US5192525A (Board of Regents, The University of Texas System, priority 1991, dated 1993).

Chains of the proteins cited; added tags and fusions are not shown.
UniProt Q29040, whole entry: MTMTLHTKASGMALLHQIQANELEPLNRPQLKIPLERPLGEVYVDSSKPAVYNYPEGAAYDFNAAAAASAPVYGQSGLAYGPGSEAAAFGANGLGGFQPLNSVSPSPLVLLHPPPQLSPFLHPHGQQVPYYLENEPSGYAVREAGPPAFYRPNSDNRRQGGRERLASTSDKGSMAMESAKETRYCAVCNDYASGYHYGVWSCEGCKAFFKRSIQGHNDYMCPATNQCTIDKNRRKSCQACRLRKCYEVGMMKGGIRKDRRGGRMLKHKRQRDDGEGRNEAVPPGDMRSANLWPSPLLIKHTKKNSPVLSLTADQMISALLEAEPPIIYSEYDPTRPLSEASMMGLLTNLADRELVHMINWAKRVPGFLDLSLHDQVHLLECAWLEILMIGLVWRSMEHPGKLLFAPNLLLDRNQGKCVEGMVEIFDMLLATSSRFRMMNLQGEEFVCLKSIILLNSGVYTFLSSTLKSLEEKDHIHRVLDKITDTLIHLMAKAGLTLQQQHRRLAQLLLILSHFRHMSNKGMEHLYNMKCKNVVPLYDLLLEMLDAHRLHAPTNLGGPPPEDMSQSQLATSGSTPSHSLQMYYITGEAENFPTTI

Biological target: T1, estrogen receptor (Sus scrofa, UniProt Q29040)
T1 construct: uteri (90 gm) were obtained from immature domestic swine (15 kg); from tissue; host or cells: uterus cytosol (100,000 g supernatant, charcoal-treated) of immature domestic swine
Test: [3H]estradiol saturation / Scatchard analysis in pig uterus
Type: binding

## C[C@]12CC[C@@H]3c4ccc(O)cc4CC[C@H]3[C@@H]1CC[C@@H]2O [[^3 H]estradiol]
  Hill coefficient: 0.982
